Reference: patent US20230038929A1, “Fused Tricyclic Heterocyclic Compounds and Uses Thereof” (Verge Analytics, Inc., priority 2019, published 2023)
Where a name gives a salt, the structure may show the parent alone.

By UniProt entry, the sequences of proteins in these tests, tags left out. Where a name states a change or a piece, a line headed by the entry shows the natural chain unless it says otherwise.
UniProt P48736: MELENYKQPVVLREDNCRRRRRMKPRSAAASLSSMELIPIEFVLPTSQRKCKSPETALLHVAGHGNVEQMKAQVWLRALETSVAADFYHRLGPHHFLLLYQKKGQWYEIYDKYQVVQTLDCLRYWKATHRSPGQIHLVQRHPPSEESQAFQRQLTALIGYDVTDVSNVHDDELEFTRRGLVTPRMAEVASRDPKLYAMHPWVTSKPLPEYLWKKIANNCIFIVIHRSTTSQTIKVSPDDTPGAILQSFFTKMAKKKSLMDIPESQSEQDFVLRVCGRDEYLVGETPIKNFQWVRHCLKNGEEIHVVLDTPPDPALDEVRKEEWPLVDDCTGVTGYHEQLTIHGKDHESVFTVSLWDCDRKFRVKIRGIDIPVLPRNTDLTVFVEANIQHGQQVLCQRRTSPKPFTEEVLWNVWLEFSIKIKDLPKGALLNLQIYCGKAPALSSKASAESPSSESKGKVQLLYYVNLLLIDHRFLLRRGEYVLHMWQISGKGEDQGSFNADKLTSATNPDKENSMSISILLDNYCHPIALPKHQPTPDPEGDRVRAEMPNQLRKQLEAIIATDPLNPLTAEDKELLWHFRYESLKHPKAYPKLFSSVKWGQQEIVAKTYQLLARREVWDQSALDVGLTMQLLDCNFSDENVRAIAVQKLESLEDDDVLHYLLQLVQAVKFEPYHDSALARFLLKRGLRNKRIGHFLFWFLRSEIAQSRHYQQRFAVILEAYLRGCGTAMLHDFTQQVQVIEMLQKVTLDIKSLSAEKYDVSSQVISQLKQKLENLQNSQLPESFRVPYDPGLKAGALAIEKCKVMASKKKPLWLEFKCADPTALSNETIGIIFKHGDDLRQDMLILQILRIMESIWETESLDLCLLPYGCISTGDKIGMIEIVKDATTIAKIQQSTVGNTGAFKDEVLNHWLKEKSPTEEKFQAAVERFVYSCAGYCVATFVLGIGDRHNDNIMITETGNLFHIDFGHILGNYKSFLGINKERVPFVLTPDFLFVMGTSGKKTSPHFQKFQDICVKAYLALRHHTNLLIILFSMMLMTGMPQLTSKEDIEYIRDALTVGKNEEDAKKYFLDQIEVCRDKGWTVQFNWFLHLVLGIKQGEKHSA

Target: PI3Kγ (p120γ) (Homo sapiens, UniProt P48736)
Assay: biochemical

Row | SMILES | IC50 [µM]
1 | Cc1cc(Nc2nc(N3CCOCC3)c3oc4ncccc4c3n2)[nH]n1 [Example 8, N-(3-Methyl-1H-pyrazol-5-yl)-4-morpholinopyrido[3′,2′:4,5]furo[3,2-d]pyrimidin-2-amine] | 2.61
2 | c1ccc(-c2cc(Nc3nc(N4CCOCC4)c4oc5ncccc5c4n3)[nH]n2)cc1 [Example 9, 4-Morpholino-N-(3-phenyl-1H-pyrazol-5-yl)pyrido[3′,2′:4,5]furo[3,2-d]pyrimidin-2-amine] | > 10
3 | c1cnc2oc3c(N4CCOCC4)nc(Nc4cc(-c5ccncc5)n[nH]4)nc3c2c1 [Example 10, 4-Morpholino-N-(3-(pyridin-4-yl)-1H-pyrazol-5-yl)pyrido[3′,2′:4,5]furo[3,2-d]pyrimidin-2-amine] | 0.582
4 | Cc1cc(N(C)c2nc(N3CCOCC3)c3oc4ncccc4c3n2)nn1C [Example 11, N-(1,5-Dimethyl-1H-pyrazol-3-yl)-N-methyl-4-morpholinopyrido[3′,2′:4,5]furo[3,2-d]pyrimidin-2-amine] | 4.67
5 | Cn1ccnc1Nc1nc(N2CCOCC2)c2oc3ncccc3c2n1 [Example 12, N-(1-Methyl-1H-imidazol-2-yl)-4-morpholinopyrido[3′,2′:4,5]furo[3,2-d]pyrimidin-2-amine] | > 10
6 | c1ccc(CCNc2nc(N3CCOCC3)c3oc4ncccc4c3n2)cc1 [Example 21, 4-morpholino-N-phenethylpyrido[3′,2′:4,5]furo[3,2-d]pyrimidin-2-amine] | 1.41
7 | C[C@H](Nc1nc(N2CCOCC2)c2oc3ncccc3c2n1)C1CC1 [Example 36, (S)-N-(1-cyclopropylethyl)-4-morpholinopyrido[3′,2′:4,5]furo[3,2-d]pyrimidin-2-amine] | 2.65
8 | c1ccc(Nc2nc(N3CCOCC3)c3oc4ncccc4c3n2)cc1 [Example 37, 4-morpholino-N-phenylpyrido[3′,2′:4,5]furo[3,2-d]pyrimidin-2-amine] | 7.28
9 | c1cnc2oc3c(N4CCOCC4)nc(Nc4ccncc4)nc3c2c1 [Example 38, 4-morpholino-N-(pyridin-4-yl)pyrido[3′,2′:4,5]furo[3,2-d]pyrimidin-2-amine] | > 10
10 | c1cncc(Nc2nc(N3CCOCC3)c3oc4ncccc4c3n2)c1 [Example 39, 4-morpholino-N-(pyridin-3-yl)pyrido[3′,2′:4,5]furo[3,2-d]pyrimidin-2-amine] | 0.677
11 | c1ccc(Nc2nc(N3CCOCC3)c3oc4ncccc4c3n2)nc1 [Example 40, 4-morpholino-N-(pyridin-2-yl)pyrido[3′,2′:4,5]furo[3,2-d]pyrimidin-2-amine] | 2.04
12 | Cc1cc(Nc2nc(N3CCOCC3)c3oc4ncccc4c3n2)nn1C [Example 47, N-(1,5-dimethyl-1H-pyrazol-3-yl)-4-morpholinopyrido[3′,2′:4,5]furo[3,2-d]pyrimidin-2-amine] | 1.87
13 | c1cnc2oc3c(N4CCOCC4)nc(Nc4cc(C5CCC5)n[nH]4)nc3c2c1 [Example 55, N-(3-cyclobutyl-1H-pyrazol-5-yl)-4-morpholinopyrido[3′,2′:4,5]furo[3,2-d]pyrimidin-2-amine hydrochloride] | 0.206
14 | c1cnc2oc3c(N4CCOCC4)nc(Nc4cc(CC5CCC5)n[nH]4)nc3c2c1 [Example 56, N-(3-(cyclobutylmethyl)-1H-pyrazol-5-yl)-4-morpholinopyrido[3′,2′:4,5]furo[3,2-d]pyrimidin-2-amine hydrochloride] | 1.54
